The record followed here is ChEMBL document CHEMBL1671644, “Inhibition of human immunodeficiency virus type 1 infection by the candidate microbicide dapivirine, a nonnucleoside reverse transcriptase inhibitor” (Antimicrob Agents Chemother, 2009).

The test system of this assay is Human immunodeficiency virus 1. The experiment in a line: Antiviral activity against HIV-1 subtype CRF01_AE V022820 infected in human MT4 cells assessed as inhibition of viral replication relative to HIV-1 3B. It counts as functional. The procedure, abridged:
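MT-4 cells (3 x 10^4/well) infected with site-directed mutants or recombinant clinical isolates (200 TCID50/well) with drug, cultured 3 to 5 days. Viability read by MTT colorimetric antivirogram assay. IC50 by nonlinear regression; fold change = IC50 for the test isolate / IC50 for wild-type HIV-1 IIIB tested in parallel (mean or median).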

Each structure is given as a SMILES string.

Consider `CC(C)Nc1cccnc1N1CCN(C(=O)c2cc3cc(NS(C)(=O)=O)ccc3[nH]2)CC1` [DELAVIRDINE], for which the “Ratio IC50” value stood at 3.3.
